Experimental data from patent US20080051454A1, “Compositions and methods for transient receptor potential vanilloid (TRPV) channel mediated treatments” (The Board of Trustees Operating Michigan State University, priority 2006, published 2008).

Columns and labels:
[1] = test system: Wistar rats fed a NS or HS diet for 10 days; assay: MAP responses to i.v. CGRP in conscious rats (10-day diet); type: in vivo, rat; details: CGRP 0.5 μg/kg iv
Procedure: Surgical Preparation Rats were anesthetized with ketamine and xylazine (80 and 4 mg/kg intraperitoneally, respectively) for cannulation or with urethane (1.5 g/kg intraperitoneally) for capsaicin administration. The left jugular vein, carotid and femoral artery were cannulated under anesthesia for injection of drugs or monitoring of mean arterial pressure (MAP) and heart rate (HR).
Protocol 2: To examine the role of TRPV1 or CGRP receptor as a depressor during HS intake, MAP responses to administration of capsaicin (10 and 30 μg/kg), a selective TRPV1 receptor agonist, or CGRP (0.5, 1, and 5 μg/kg) were determined in anesthetized or conscious rats fed a NS or HS diet. Each dose of injection was separated by a 30-minute interval. To determine the specificity of capsaicin, CAPZ (3 mg/kg) was administered 10 minutes before capsaicin injection in a separate group.

[2] = test system: Wistar rats fed a NS or HS diet for 3 weeks; assay: MAP responses to i.v. CGRP in conscious rats (3-week diet); type: in vivo, rat
Procedure: Surgical Preparation The rats were anesthetized with ketamine and xylazine (80 and 4 mg/kg ip, respectively) for implantation of artery and vein catheters. The left jugular vein and carotid artery were cannulated for administration of drugs or for monitoring of mean arterial pressure (MAP) and heart rate (HR) with a Statham 231D pressure transducer coupled to a Gould 2400s recorder (Gould Instruments, Dayton, Ohio, USA). For conscious animal experiments, catheters were routed subcutaneously and exteriorized between the scapulae. Rats were quietly brought to home cages 3 hours after surgery, and MAP and HR were continuously recorded. Regular room light was turned on during experiments. The rats were allowed to acclimate to their surroundings for 15-30 minutes in their cages, i.e., until which time they ceased exploring the new environment and their blood pressures stabilized. Baseline MAP and HR were recorded for 15 minutes before administration of drugs (Supowit et al., 1997; Wang and Wang, 2004).
Protocol 2: To determine the role of the CGRP receptor in rats fed a HS diet, MAP responses to injection of CGRP (1 and 5 pg/kg bolus) were measured in conscious rats fed a NS or HS diet. Thirty minutes were allowed for stabilization of blood pressure between injections.

CGRP: 37-amino acid peptide, calcitonin gene-related peptide
decrease in MAP ([1]; HS): 11±2 mmHg | decrease in MAP ([1]; NS): 4±2 mmHg | reduction in MAP ([2]; CGRP 1 μg/kg, HS 3 weeks): 19±3 mmHg | reduction in MAP ([2]; CGRP 1 μg/kg, NS 3 weeks): 11±3 mmHg | reduction in MAP ([2]; CGRP 5 μg/kg, HS 3 weeks): 43±3 mmHg | reduction in MAP ([2]; CGRP 5 μg/kg, NS 3 weeks): 24±3 mmHg
